The values that follow come from ChEMBL document CHEMBL1128198, “New drug developments for opportunistic infections in immunosuppressed patients: Pneumocystis carinii” (J Med Chem, 1995).

The target of assay [1] is T1, Dihydrofolate reductase (Pneumocystis carinii, UniProt P16184).
T1 sequence (P16184 whole entry): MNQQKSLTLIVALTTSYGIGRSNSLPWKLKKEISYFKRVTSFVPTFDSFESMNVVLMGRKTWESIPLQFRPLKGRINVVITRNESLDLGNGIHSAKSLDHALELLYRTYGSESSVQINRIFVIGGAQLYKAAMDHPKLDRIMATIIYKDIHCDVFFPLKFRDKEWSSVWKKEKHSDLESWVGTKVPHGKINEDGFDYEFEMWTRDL

For assay [2], the target named is T1, Dihydrofolate reductase. The source holds these as a separate data set.

Turning to `COc1cc(NCc2cnc3nc(N)nc(N)c3c2C)cc(OC)c1OC`, the midpoint of inhibition at Dihydrofolate reductase [1], the IC50, lay at 13 nM.
On to `COc1ccc(OC)c(Cc2cnc3nc(N)nc(N)c3c2C)c1` [PIRITREXIM], for which the affinity on Dihydrofolate reductase [2] corresponds to a Ki of 0.143 nM.

One may read the IC50 as the concentration that inhibits the measured activity by half. The term Ki denotes the equilibrium dissociation constant of an inhibitor or competing ligand from its target.
